# Measured values as given in BindingDB's records for US9120797.
# Chains of the proteins cited; added tags and fusions are not shown. Lines headed by an entry give the natural chain unless they say otherwise; changes in a name come on top.
# UniProt P41146: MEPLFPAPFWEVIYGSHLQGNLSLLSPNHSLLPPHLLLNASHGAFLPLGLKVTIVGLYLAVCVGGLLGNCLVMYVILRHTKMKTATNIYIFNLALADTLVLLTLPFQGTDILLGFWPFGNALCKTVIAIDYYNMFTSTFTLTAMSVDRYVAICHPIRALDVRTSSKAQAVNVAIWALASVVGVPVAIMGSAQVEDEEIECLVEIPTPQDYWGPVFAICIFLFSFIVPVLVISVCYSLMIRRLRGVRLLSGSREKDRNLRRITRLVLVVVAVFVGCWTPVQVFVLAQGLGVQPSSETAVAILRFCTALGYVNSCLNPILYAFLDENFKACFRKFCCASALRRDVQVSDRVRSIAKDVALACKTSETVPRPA
# UniProt P35372, whole entry, looked up: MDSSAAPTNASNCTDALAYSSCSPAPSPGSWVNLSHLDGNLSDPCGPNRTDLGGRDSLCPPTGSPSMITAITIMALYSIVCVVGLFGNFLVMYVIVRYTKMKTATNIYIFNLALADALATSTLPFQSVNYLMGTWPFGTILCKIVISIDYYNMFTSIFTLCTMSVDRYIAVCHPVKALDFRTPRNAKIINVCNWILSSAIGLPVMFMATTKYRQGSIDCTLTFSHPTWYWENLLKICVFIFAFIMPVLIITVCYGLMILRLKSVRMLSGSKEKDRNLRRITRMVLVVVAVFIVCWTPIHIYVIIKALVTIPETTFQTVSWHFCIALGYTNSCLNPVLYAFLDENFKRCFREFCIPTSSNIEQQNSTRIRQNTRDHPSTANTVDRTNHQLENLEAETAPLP
# Experiments:
# Nociceptin receptor = Nociceptin receptor (Homo sapiens, UniProt P41146); assay: Binding Assay; settings: pH 7.4
# Mu-type opioid receptor = Mu-type opioid receptor (Homo sapiens, UniProt P35372); assay: Binding Assay
Compound,Ki (Nociceptin receptor) [nM],Ki (Mu-type opioid receptor) [nM]
CN(C)C1(c2ccccc2)CCC2(CC1)NCCc1c2[nH]c2cc(F)ccc12 (stereo not given),6.9,17
CN(C)C1(c2ccc(F)cc2)CCC2(CC1)c1sc3ccccc3c1CC[S+]2[O-] (stereo not given),62,–
CC(=O)N1CCc2c([nH]c3cc(F)ccc23)C12CCC(c1ccccc1)(N(C)C)CC2 (stereo not given),–,1.7
CN(C)C1(c2cccc(F)c2)CCC2(CC1)OCCc1c2[nH]c2ccccc12 (stereo not given),–,2.1
